From ChEMBL document CHEMBL1125895, “Naphtho and benzo analogues of the kappa opioid agonist trans-(+/-)-3,4-dichloro-N-methyl-N-[2-(1-pyrrolidinyl)cyclohexyl] benzeneacetamide” (1991)

Sequences of proteins named here, by UniProt entry; tags and fusion partners are left off.
UniProt P33534, whole entry: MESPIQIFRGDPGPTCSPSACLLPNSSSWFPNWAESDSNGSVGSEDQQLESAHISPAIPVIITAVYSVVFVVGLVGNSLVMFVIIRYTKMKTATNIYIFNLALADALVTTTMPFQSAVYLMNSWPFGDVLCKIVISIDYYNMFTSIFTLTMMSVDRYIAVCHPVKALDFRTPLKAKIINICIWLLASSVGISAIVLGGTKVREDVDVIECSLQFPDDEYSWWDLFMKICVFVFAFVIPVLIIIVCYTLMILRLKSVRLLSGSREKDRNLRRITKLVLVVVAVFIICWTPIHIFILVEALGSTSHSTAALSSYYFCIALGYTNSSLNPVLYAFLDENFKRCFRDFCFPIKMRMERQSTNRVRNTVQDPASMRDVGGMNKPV
UniProt P42866, whole entry: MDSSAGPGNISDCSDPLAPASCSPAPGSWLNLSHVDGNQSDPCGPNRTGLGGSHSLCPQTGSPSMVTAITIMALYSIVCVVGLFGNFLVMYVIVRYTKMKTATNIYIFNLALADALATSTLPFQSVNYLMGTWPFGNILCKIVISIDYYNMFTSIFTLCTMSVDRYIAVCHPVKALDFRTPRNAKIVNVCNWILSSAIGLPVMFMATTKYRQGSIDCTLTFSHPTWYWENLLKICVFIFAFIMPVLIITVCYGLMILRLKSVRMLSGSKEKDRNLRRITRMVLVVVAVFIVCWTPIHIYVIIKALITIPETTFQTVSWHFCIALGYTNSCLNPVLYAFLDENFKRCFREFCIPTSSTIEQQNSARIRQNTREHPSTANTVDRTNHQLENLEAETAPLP

How the values were obtained:
[1] = target: Kappa-type opioid receptor (Mus musculus, UniProt P33534); assay: Binding affinity against opioid receptor kappa using [3H]U-69,593 as a radioligand
Mu-type opioid receptor = Mu-type opioid receptor (Mus musculus, UniProt P42866); assay: Binding affinity against opioid receptor mu using [3H]etorphine as a radioligand
Mus musculus [2] = assay: In vivo analgesic activity for heat stimulus modality using tail flick test in female CF-1 mice administered subcutaneously
Mus musculus [3] = assay: In vivo analgesic activity for chemical irritation modality using HCl writhing test in female CF-1 mice administered subcutaneously
Mus musculus [4] = assay: In vivo analgesic activity for pressure stimulus modality using tail pinch test in female CF-1 mice administered subcutaneously

Row | SMILES | IC50 [1] [nM] | Ki (Mu-type opioid receptor) [nM] | ED50 (Mus musculus [2]) [mg/kg] | ED50 (Mus musculus [3]) [mg/kg] | ED50 (Mus musculus [4]) [mg/kg]
1 | CN(C)[C@@H]1Cc2ccccc2C[C@H]1N(C)C(=O)c1ccc(Cl)c(Cl)c1 | 55.5 |  |  |  | 
2 | CN(C(=O)c1ccc(Cl)c(Cl)c1)[C@@H]1Cc2cc3ccccc3cc2C[C@H]1N1CCCC1 | 84.9 | > 1000 | > 100 | 71 | > 100
3 | CN(C)[C@@H]1CCc2ccccc2[C@H]1N(C)C(=O)c1ccc(Cl)c(Cl)c1 | 2200 | 505 | > 100 | > 100 | > 100
4 | CN(C(=O)c1ccc(Cl)c(Cl)c1)[C@@H]1c2ccccc2CC[C@H]1N1CCCC1 | 368 | > 1000 | > 100 | > 100 | > 100
